Consider 1 compound from ChEMBL document CHEMBL1212923, “Synthesis and in vivo evaluation of phenethylpiperazine amides: selective 5-hydroxytryptamine(2A) receptor antagonists for the treatment of insomnia” (J Med Chem, 2010).

Series [1] is described as follows: Protein binding in monkey plasma. To be noted: rhesus monkey, read-out: PPB (converted). Type of series: ADME, cell-free, Macaca mulatta.
The species entered for series [2] is Homo sapiens. The series is described as follows: Protein binding in human plasma. To be noted: read-out: PPB (converted).

On to `Cn1cc(Cl)c(C(=O)N2CCN(CC(=O)c3ccc(F)cc3)CC2)n1`, for which the fraction unbound in series [1] is 0.29; in series [2], 0.31.
